From PubChem BioAssay AID1422 (Emory University Molecular Libraries Screening Center, 2008)
The entries are a selection whose mix differs from that of the whole data set. Some tests of the compounds listed are not included; inactive here does not mean inactive elsewhere. Calls of active or inactive are those of the source.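 Rule for the calls: active = percent inhibition above 40 after rounding to a whole number; inactive = the rest.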

The chains behind the UniProt entries cited, without tags or fusion partners.
UniProt P43116, whole entry: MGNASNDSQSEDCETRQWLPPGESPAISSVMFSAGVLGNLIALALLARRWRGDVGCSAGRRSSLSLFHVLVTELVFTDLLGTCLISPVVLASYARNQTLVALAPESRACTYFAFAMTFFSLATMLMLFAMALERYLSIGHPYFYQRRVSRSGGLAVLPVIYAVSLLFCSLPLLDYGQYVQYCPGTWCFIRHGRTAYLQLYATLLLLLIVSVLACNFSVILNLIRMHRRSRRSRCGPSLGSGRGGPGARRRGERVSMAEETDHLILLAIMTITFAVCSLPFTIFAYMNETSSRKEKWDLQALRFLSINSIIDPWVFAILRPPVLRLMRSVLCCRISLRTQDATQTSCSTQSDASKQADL

biological target: Prostaglandin E2 receptor EP2 subtype (Homo sapiens) (UniProt P43116); assay: blockers of PGE2-driven EP2 cAMP signalling – TR-FRET cAMP, C6 glioma cells, primary screen (AID 1422); conditions: C6 glioma cells expressing human EP2, cAMP TR-FRET; at 25 µM; hits give high values; cells stimulated with saturating PGE2;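 note: rat C6 glioma host cells with rolipram phosphodiesterase inhibitor present; the protocol text gives 20 µM as final concentration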

Q: Which inhibition does the source give for C=C(C)C#C[C@@](O)(C(=O)OC1CCN(C)CC1)c1ccccc1 here?
A: The inhibition was inactive: 6.44%.

Q: Which inhibition does the source give for O=C(OC1CN2CCC1CC2)C(CO)(c1ccccc1)c1ccccc1 (configuration not stated) here?
A: The inhibition was inactive: 2.18%.

Q: Which inhibition does the source give for CN(C)c1cccc(C(=O)NCC2(N(C)C)CCCCC2)c1 here?
A: Its inhibition is inactive: 9.54%.

Q: COc1ccc(Br)c(C(=O)NCC2(N3CCCCC3)CCCCC2)c1 was tested. Which inhibition did it give?
A: Its inhibition is inactive: 6.49%.

Q: Which inhibition does the source give for COc1cccc(C(=O)NCC2(N3CCCCC3)CCCCC2)c1 here?
A: Its inhibition is inactive: 1.93%.

Q: How did the inhibition turn out when CN(C)C1CCCC1OC(=O)C(O)(c1ccccc1)c1ccccc1 (configuration not stated) was run?
A: The inhibition was inactive: 8.47%.

Q: For Cc1ccccc1C(=O)NCC1(N2CCCCC2)CCCCC1, which inhibition is on record?
A: Its inhibition is inactive: 1.31%.

Q: For CCN1CCCC(OC(=O)C2(O)c3ccccc3C=Cc3ccccc32)C1 (configuration not stated), which inhibition is on record?
A: Its inhibition is inactive: 8.92%.

Q: For C=CCN1CCN(CCOC(=O)C(O)(c2ccccc2)c2ccccc2)CC1, which inhibition is on record?
A: Its inhibition is inactive: 7.65%.

Q: How did the inhibition turn out when O=C(NCC1(N2CCCCC2)CCCCC1)c1cc([N+](=O)[O-])ccc1Cl was run?
A: The inhibition was inactive: 6.58%.

Q: For CCN(CC)CC(C)C(C)OC(=O)C(O)(c1ccccc1)c1ccccc1 (configuration not stated), which inhibition is on record?
A: The inhibition was inactive: 10.3%.

Q: CC(C)N1C(=O)CC2(CCN(CCOC(=O)C(O)(c3ccccc3)c3ccccc3)CC2)C1=O was tested. Which inhibition did it give?
A: Its inhibition is inactive: 8.3%.
